The values that follow are results of earlier work, collected in article PMC4297708 (Drug and alcohol dependence, 2014).

Protein sequences, listed by entry. Tags and fused reporters are not part of them.
UniProt Q01959, whole entry C306A/T316C: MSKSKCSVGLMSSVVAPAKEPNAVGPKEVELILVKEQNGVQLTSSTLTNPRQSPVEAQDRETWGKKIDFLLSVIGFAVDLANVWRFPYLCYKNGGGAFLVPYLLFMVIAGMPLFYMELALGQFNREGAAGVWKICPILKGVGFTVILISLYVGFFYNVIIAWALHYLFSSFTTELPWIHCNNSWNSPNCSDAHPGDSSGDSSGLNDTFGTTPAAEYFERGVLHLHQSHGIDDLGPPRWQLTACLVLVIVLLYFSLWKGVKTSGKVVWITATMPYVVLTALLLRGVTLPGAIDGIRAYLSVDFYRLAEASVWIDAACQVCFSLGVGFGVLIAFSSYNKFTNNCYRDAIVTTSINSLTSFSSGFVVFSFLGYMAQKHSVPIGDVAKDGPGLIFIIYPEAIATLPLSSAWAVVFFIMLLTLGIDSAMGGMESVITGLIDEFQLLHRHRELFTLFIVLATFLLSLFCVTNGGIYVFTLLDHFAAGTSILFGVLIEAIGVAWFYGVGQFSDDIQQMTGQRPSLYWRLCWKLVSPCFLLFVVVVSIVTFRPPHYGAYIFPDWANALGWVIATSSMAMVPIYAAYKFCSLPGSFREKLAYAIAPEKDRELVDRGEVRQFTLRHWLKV

Each structure is given as a SMILES string.

This data set has as its target T316C/C306A human DAT (Homo sapiens, UniProt Q01959, C306A/T316C). The following applies: HEK293 cells; cocaine 100 μM, RTI-336 1.0 μM, RTI-371 1.0 μM, BZT 100 μM, JHW007 1.0 μM; Fig. 5B; ref Hiranita et al., 2014; cited from earlier work.

On to `Cc1ccc(-c2cc([C@@H]3C4CCC(C[C@@H]3c3ccc(Cl)cc3)N4C)on2)cc1` (some centres unmarked) [RTI-336], for which the “effect on DAT labeling (cysteine accessibility of DAT T316C/C306A)” value (“effect on DAT labeling” below) is “significantly increased DAT labeling”. With `Cc1ccc([C@H]2C[C@@H]3CC[C@H]([C@H]2c2cc(-c4ccc(Cl)cc4)no2)N3C)cc1` [RTI-371, 3β-(4-methylphenyl)-2β-[3-(4-chlorophenyl)isoxazol-5-yl]tropane], the “effect on DAT labeling” value is on record as “significantly increased DAT labeling”. Turning to `COC(=O)[C@H]1[C@@H](OC(=O)c2ccccc2)C[C@@H]2CC[C@H]1N2C` [cocaine], the “effect on DAT labeling” value was “significantly increased DAT labeling”.

Turning to `CCCCN1[C@@H]2CC[C@H]1CC(OC(c1ccc(F)cc1)c1ccc(F)cc1)C2` (some centres unmarked) [JHW 007], the “effect on DAT labeling” value was “reduced DAT labeling”. As for `CN1[C@@H]2CC[C@H]1C[C@@H](OC(c1ccccc1)c1ccccc1)C2` [BZT, benztropine], the “effect on DAT labeling” value is listed as “reduced DAT labeling”.
